From patent US12162874B2, “Peptidomimetic-based antibody surrogate for HER2” (University of South Florida, priority 2021, dated 2024)

Test system: SKBR3 tumor xenograft
Experiment: Antitumor study in SKBR3 xenograft nude mice, tumor volume
Format: in vivo, mouse
Settings: after end of dosing, until day 24
From the text: Male BALB/c nude mice, 4-6 weeks old, were provided by the Shanghai Bikai Experimental Animal Center, with the license number SOXK (Hu) 2008-0016, and maintained under specific-pathogen-free conditions. All animal protocols were approved by the Institutional Animal Use and Care Committee. All the experiments and animal care were approved by Shanghai Medical Experimental Animal Care Commission and in accordance with the Provision and General Recommendation of Chinese Experimental Animals Administration Legislation.

trastuzumab: a monoclonal antibody that targets the HER2 pathway [reference compound]
tumor volume after the last drug injection on day 12: significant reduction in tumor volume was still observed
